Source: paper PMC3588017

Columns and labels:
[1] = biological target: I-domain from integrin alpha 2 beta 1, locked open I-domain cleaved of its GST tag (CLOI); experiment: single molecule force spectroscopy (AFM); as a1, after free I-domain was flowed into the AFM fluid cell to block the peptide on the tip; means of four cantilevers
[2] = biological target: I-domain from integrin alpha 2 beta 1, locked open I-domain cleaved of its GST tag (CLOI); experiment: single molecule force spectroscopy (AFM); I-domain (CLOI) tethered by a cysteine through a PEG crosslinker to template stripped gold; peptide tethered through PEG to a gold coated cantilever; fluid cell in PBS; amplitude 200 nm, 1 Hz, 1000 approach-retract cycles a tip; uninhibited; single loading rate

Substance	unbinding probability after blocking with free I-domain [1] [%]	peak force (peak 1) [2] [pN]	peak force (peak 2) [2] [pN]	peak force (peak 3) [2] [pN]	peak force (peak 4) [2] [pN]	peak force (peak 5) [2] [pN]	peak force (peak 6) [2] [pN]	unbinding probability [2] [%]	peak force (peak 7) [2] [pN]	peak force (peak 8) [2] [pN]	peak force (peak 9) [2] [pN]
GFOGER peptide, synthetic triple helical collagen related peptide GPC[GPP]5GFOGER[GPP]5GPCG	14	13	26	37	55	71	89	20	–	–	–
GPP peptide, synthetic triple helical control peptide GPC[GPP]10GPCG	–	16	27	34	52	65	72	8	80	90	109
